Reference: US20260382731A1, “BCL-2/BCL-XL PROTEIN DEGRADER AND USE THEREOF” (published 2026)

By UniProt entry, the sequences of proteins in these tests, tags left out.
UniProt Q07817, whole entry: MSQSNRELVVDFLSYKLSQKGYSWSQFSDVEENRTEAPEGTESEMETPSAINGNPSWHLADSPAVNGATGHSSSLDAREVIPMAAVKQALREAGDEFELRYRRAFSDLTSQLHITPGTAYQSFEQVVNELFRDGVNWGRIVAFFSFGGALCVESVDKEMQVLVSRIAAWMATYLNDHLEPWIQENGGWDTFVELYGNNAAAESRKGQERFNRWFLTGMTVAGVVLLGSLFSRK

Assays:
[1] = biological target: BCL-XL (Homo sapiens, UniProt Q07817); experiment: Immunoblotting: BCL-XL protein degradation; details: read-out: MDA-MB-231 degradation DC50, MDA-MB-231 cells
Excerpt: Cells were collected and lysed in a lysis buffer (Cat. No. BP-115DG, Boston Bio Products, Ashland, MA, USA) containing protease and phosphatase inhibitor cocktails (Cat. No. PPC1010, Sigma-Aldrich, St. Louis, MO, USA). An equal amount of protein lysates was separated on precasted 4-20% Tris-glycine gels (Mini-PROTEAN TGX, Cat. No. 456-1094, Bio-Rad, Hercules, CA, USA). Thereafter, the proteins were transferred to PVDF membranes (Cat. No. LC2002, MilliporeSigma, Billerica, MA, USA). The membranes were blocked with 5% w/v nonfat dry milk in TBS+Tween-20 (0.1% v/v) and then probed with primary antibodies overnight at 4 °C. Next day, the membranes were washed and incubated with appropriate horseradish peroxidase (HRP)-conjugated secondary antibodies. Primary antibodies against BCL-XL (Cat. No. 2762) and Pactin (Cat. No. 4970) and the secondary HRP-linked antibody (Cat. No. 7074) were purchased from Cell Signaling Technology (Danvers, MA, USA). The signal was detected using the ECL substrate (Cat. No. WBKLS0500, MilliporeSigma, Billerica, MA, USA) and captured on the ChemiDoc MP Imaging System (Bio-Rad, Hercules, CA, USA). The band intensities were calculated on the ImageJ software and normalized to equal loading control β-actin.

[2] = system: human platelets; experiment: Platelet viability test (CellTiter-Glo, 72 h); details: read-out: Human platelet IC50
Protocol: Human platelet-rich Plasma (PRP) was purchased from Milestone® Biotechnology Limited. PRPS are used for experiments immediately after arrival. Transfer PRP to a 50-mL polypropylene EP tube containing 5 mL citrate buffer (cat. no. sc-214744, Santa Cruz Biotechnology). To avoid clotting, The final concentration of prostaglandin E1 (PGE1, cat. no. sc-201223A, Santa Cruz Biotechnology) and adenosine diphosphonase triphosphate (cat. no. A6410-200UN, 2 units/mL, respectively) were added to the EP tube. Sigma-Aldrich). Slightly shake and mix the liquid in the EP tube, centrifuge it at 1200 g for 10 minutes, and separate the platelets. HEPES buffer benchtop solution (10 mM HEPES, 135 mM NaCl, 2.8 mM KCl, 1 mM MgCl2, 2 mM CaCl2), 10 mm Hepes, 135 mm NaCl, 2.8 mm KCL, 1 mm MgCl2, 2 mm CaCl2)) was prepared with 2 mL of prostaglandin E1 and 2 units/mL of adenosine bisphosphonase triphosphate. 12 mM NaHCO3, 0.4 mM NaH2PO4, 0.25% BSA and 5.5 mM glucose, pH 7.4; cat. no. Cat. No. Cat. #:25-02580, Tiandz) continuously and gently clean the platelet precipitates after centrifugation. After washing, platelets were slowly reinserted to HEPES buffer table solution containing 1 μM of prostaglandin E1 and 2 units/mL of adenosine bisphosphonase triphosphate. Platelets were counted by Vi-cell XR (Backman) cell counter. Platelet activity tests were performed: platelets were resuscitated into a HEPES buffer solution containing 1 µM of prostaglandin E1 and 2 units/mL of adenosine bisphosphonase triphosphate and 10% FBS, counted, and inoculated into 96-well plates with 5×10^5 platelets per well. Different concentrations of the compound to be detected (starting at 10 μM, diluted 3 times) were added to 96-well plates and incubated in the cell incubator for 72 h. 72 h after administration, platelet activity was detected by CellTiter-Glo™ luminescence assay.

[3] = system: MOLT-4 cells; experiment: Cell viability assay, MOLT-4 (CellTiter-Glo, 72 h); details: read-out: MOLT4 Cell viability IC50

Compound	DC50 [1] [nM]	IC50 [3] [nM]	IC50 [2] [nM]
CCn1c(C)c(C(=O)N2C[C@H](O)[C@@H](O)C2)c(-c2cc(F)cc(N3CCN(c4ccc(NS(=O)(=O)c5ccc(N[C@H](CCN6CCN(C(=O)CCCCCC(=O)N[C@H](C(=O)N7C[C@H](O)C[C@H]7C(=O)N[C@@H](C)c7ccc(-c8scnc8C)cc7)C(C)(C)C)CC6)CSc6ccccc6)c(S(=O)(=O)C(F)(F)F)c5)cc4)CC3)c2)c1-c1ccc(F)cc1	9	52	1800
CCn1c(C)c(C(=O)NCCN(C)C)c(-c2cc(F)cc(N3CCN(c4ccc(NS(=O)(=O)c5ccc(N[C@H](CCN6CCN(C(=O)CCCCCC(=O)N[C@H](C(=O)N7C[C@H](O)C[C@H]7C(=O)N[C@@H](C)c7ccc(-c8scnc8C)cc7)C(C)(C)C)CC6)CSc6ccccc6)c(S(=O)(=O)C(F)(F)F)c5)cc4)CC3)c2)c1-c1ccc(F)cc1	4	14	78
Cc1ncsc1-c1ccc([C@H](C)NC(=O)[C@@H]2C[C@@H](O)CN2C(=O)[C@@H](NC(=O)CCCCCC(=O)N2CCN(CC[C@H](CSc3ccccc3)Nc3ccc(S(=O)(=O)Nc4ccc(N5CCN(c6cc(F)cc(-c7c(C(=O)N8CCOCC8)c(C)n(C(C)C)c7-c7ccc(Cl)cc7)c6)CC5)cc4)cc3S(=O)(=O)C(F)(F)F)CC2)C(C)(C)C)cc1	3	11	98
CCn1c(C)c(C(=O)N2CC[C@H](O)C2)c(-c2cc(F)cc(N3CCN(c4ccc(NS(=O)(=O)c5ccc(N[C@H](CCN6CCN(C(=O)CCCCCC(=O)N[C@H](C(=O)N7C[C@H](O)C[C@H]7C(=O)N[C@@H](C)c7ccc(-c8scnc8C)cc7)C(C)(C)C)CC6)CSc6ccccc6)c(S(=O)(=O)C(F)(F)F)c5)cc4)CC3)c2)c1-c1ccccc1	11	20	455
CCn1c(C)c(C(=O)NCCN(C)C)c(-c2cc(F)cc(N3CCN(c4ccc(NS(=O)(=O)c5ccc(N[C@H](CCN6CCN(C(=O)CCCCCC(=O)N[C@H](C(=O)N7C[C@H](O)C[C@H]7C(=O)N[C@@H](C)c7ccc(-c8scnc8C)cc7)C(C)(C)C)CC6)CSc6ccccc6)c(S(=O)(=O)C(F)(F)F)c5)cc4)CC3)c2)c1-c1ccc(Cl)cc1	18	13	42
CCn1c(C)c(C(=O)N2CCN(C)CC2)c(-c2cc(F)cc(N3CCN(c4ccc(NS(=O)(=O)c5ccc(N[C@H](CCN6CCN(C(=O)CCCCCC(=O)N[C@H](C(=O)N7C[C@H](O)C[C@H]7C(=O)N[C@@H](C)c7ccc(-c8scnc8C)cc7)C(C)(C)C)CC6)CSc6ccccc6)c(S(=O)(=O)C(F)(F)F)c5)cc4)CC3)c2)c1-c1ccc(Cl)cc1	0.8	14	68
Cc1ncsc1-c1ccc([C@H](C)NC(=O)[C@@H]2C[C@@H](O)CN2C(=O)[C@@H](NC(=O)CCCCCC(=O)N2CCN(CC[C@H](CSc3ccccc3)Nc3ccc(S(=O)(=O)Nc4ccc(N5CCN(c6cc(F)cc(-c7c(C(=O)N8CC[C@H](O)C8)c(C)n(C)c7-c7ccc(F)cc7)c6)CC5)cc4)cc3S(=O)(=O)C(F)(F)F)CC2)C(C)(C)C)cc1	18	160	> 10000
CCn1c(C)c(S(C)(=O)=O)c(-c2cc(F)cc(N3CCN(c4ccc(NS(=O)(=O)c5ccc(N[C@H](CCN6CCC7(CC6)CN(C(=O)CCCCCC(=O)N[C@H](C(=O)N6C[C@H](O)C[C@H]6C(=O)N[C@@H](C)c6ccc(-c8scnc8C)cc6)C(C)(C)C)C7)CSc6ccccc6)c(S(=O)(=O)C(F)(F)F)c5)cc4)CC3)c2)c1-c1ccc(F)cc1	4	64	132
CCn1c(C)c(C(=O)NCC2COCCO2)c(-c2cc(F)cc(N3CCN(c4ccc(NS(=O)(=O)c5ccc(N[C@H](CCN6CCN(CCCCCCC(=O)N[C@H](C(=O)N7C[C@H](O)C[C@H]7C(=O)N[C@@H](C)c7ccc(-c8scnc8C)cc7)C(C)(C)C)CC6)CSc6ccccc6)c(S(=O)(=O)C(F)(F)F)c5)cc4)CC3)c2)c1-c1ccc(F)cc1 (stereo partly drawn)	3	9.8	184
Cc1ncsc1-c1ccc([C@H](C)NC(=O)[C@@H]2C[C@@H](O)CN2C(=O)[C@@H](NC(=O)CCCCCC(=O)N2CCN(CC[C@H](CSc3ccccc3)Nc3ccc(S(=O)(=O)Nc4ccc(N5CCN(c6cc(F)cc(-c7c(C(=O)N8CC[C@H](O)C8)c(C)n(C(C)C)c7-c7ccccc7)c6)CC5)cc4)cc3S(=O)(=O)C(F)(F)F)CC2)C(C)(C)C)cc1	15	9	151

The next lines start with results.

DC50 [1] [nM]	IC50 [3] [nM]	Compound	IC50 [2] [nM]
2	128	Cc1ncsc1-c1ccc([C@H](C)NC(=O)[C@@H]2C[C@@H](O)CN2C(=O)[C@@H](NC(=O)CCCCCC(=O)N2CCC3(CC2)CN(CC[C@H](CSc2ccccc2)Nc2ccc(S(=O)(=O)Nc4ccc(N5CCN(c6cc(F)cc(-c7c(S(C)(=O)=O)c(C)n(C)c7-c7ccc(F)cc7)c6)CC5)cc4)cc2S(=O)(=O)C(F)(F)F)C3)C(C)(C)C)cc1	72
19	23	CCn1c(C)c(S(C)(=O)=O)c(-c2cc(F)cc(N3CCN(c4ccc(NS(=O)(=O)c5ccc(N[C@H](CCN6CCN(C(=O)CCCCCC(=O)N[C@H](C(=O)N7C[C@H](O)C[C@H]7C(=O)N[C@@H](C)c7ccc(-c8scnc8C)cc7)C(C)(C)C)CC6)CSc6ccccc6)c(S(=O)(=O)C(F)(F)F)c5)cc4)CC3)c2)c1-c1ccc(Cl)cc1	128
4	7	Cc1ncsc1-c1ccc([C@H](C)NC(=O)[C@@H]2C[C@@H](O)CN2C(=O)[C@@H](NC(=O)CCCCCC(=O)N2CCN(CC[C@H](CSc3ccccc3)Nc3ccc(S(=O)(=O)Nc4ccc(N5CCN(c6cc(F)cc(-c7c(C(=O)N8CC[C@H](O)C8)c(C)n(C(C)C)c7-c7ccc(F)cc7)c6)CC5)cc4)cc3S(=O)(=O)C(F)(F)F)CC2)C(C)(C)C)cc1	810
43	24	CCn1c(C)c(C(=O)N(C)C)c(-c2cc(F)cc(N3CCN(c4ccc(NS(=O)(=O)c5ccc(N[C@H](CCN6CCN(C(=O)CCCCCC(=O)N[C@H](C(=O)N7C[C@H](O)C[C@H]7C(=O)N[C@@H](C)c7ccc(-c8scnc8C)cc7)C(C)(C)C)CC6)CSc6ccccc6)c(S(=O)(=O)C(F)(F)F)c5)cc4)CC3)c2)c1-c1ccc(F)cc1	> 10000
4	36	Cc1ncsc1-c1ccc([C@H](C)NC(=O)[C@@H]2C[C@@H](O)CN2C(=O)[C@@H](NC(=O)CCCCCC(=O)N2CCN(CC[C@H](CSc3ccccc3)Nc3ccc(S(=O)(=O)Nc4ccc(N5CCN(c6cc(F)cc(-c7c(S(C)(=O)=O)c(C)n(C(C)C)c7-c7ccc(F)cc7)c6)CC5)cc4)cc3S(=O)(=O)C(F)(F)F)CC2)C(C)(C)C)cc1	103
3	17	CCn1c(C)c(S(C)(=O)=O)c(-c2cc(F)cc(N3CCN(c4ccc(NS(=O)(=O)c5ccc(N[C@H](CCN6CCN(CCCCCCC(=O)N[C@H](C(=O)N7C[C@H](O)C[C@H]7C(=O)N[C@@H](C)c7ccc(-c8scnc8C)cc7)C(C)(C)C)CC6)CSc6ccccc6)c(S(=O)(=O)C(F)(F)F)c5)cc4)CC3)c2)c1-c1ccc(F)cc1	132
2	50	CCn1c(C)c(S(C)(=O)=O)c(-c2cc(F)cc(N3CCN(c4ccc(NS(=O)(=O)c5ccc(N[C@H](CCN6CCN(C(=O)CCCOCCCC(=O)N[C@H](C(=O)N7C[C@H](O)C[C@H]7C(=O)N[C@@H](C)c7ccc(-c8scnc8C)cc7)C(C)(C)C)CC6)CSc6ccccc6)c(S(=O)(=O)C(F)(F)F)c5)cc4)CC3)c2)c1-c1ccc(F)cc1	461
2	50	CCn1c(C)c(S(C)(=O)=O)c(-c2cc(F)cc(N3CCN(c4ccc(NS(=O)(=O)c5ccc(N[C@H](CCN6CCN(C(=O)CCCCCCC(=O)N[C@H](C(=O)N7C[C@H](O)C[C@H]7C(=O)N[C@@H](C)c7ccc(-c8scnc8C)cc7)C(C)(C)C)CC6)CSc6ccccc6)c(S(=O)(=O)C(F)(F)F)c5)cc4)CC3)c2)c1-c1ccc(F)cc1	840
